Reference: patent publication US4742057A, “Antiallergic thiazole compounds” (Fujisawa Pharmaceutical Co., Ltd., priority 1985, dated 1988)

What follows are molecules tested on SRS-A synthesis or release from peritoneal exudate cells (assay: Anti-SRS-A activity (inhibition of SRS-A synthesis or release from peritoneal exudate cells)). Conditions: rat peritoneal exudate cells; Ca++-ionophore A23187 1 μg/ml; indomethacin 10 μg/ml; SRS-A read as contractility of isolated guinea pig ileum.

Row | Structure (SMILES) | Inhibitory Concentration IC50
1 | CCCC(=O)Nc1nc(CN2CCC(c3c[nH]c4ccccc34)CC2)cs1 | 0.18 µg/mL
2 | CC(C)C(=O)Nc1nc(CN2CCC(c3c[nH]c4ccccc34)CC2)cs1 | 0.75 µg/mL
3 | CCC(=O)Nc1nc(CN2CCC(c3c[nH]c4ccc([N+](=O)[O-])cc34)CC2)cs1 | 0.22 µg/mL
4 | O=C(Nc1nc(CN2CCC(c3c[nH]c4ccccc34)CC2)cs1)C1CC1 | 0.077 µg/mL
5 | CCOC(=O)Nc1nc(CN2CCC(c3c[nH]c4ccccc34)CC2)cs1 | 0.36 µg/mL
6 | CCC(=O)Nc1nc(CN2CCC(c3c[nH]c4ccccc34)CC2)cs1 [Compound D, 4-[4-(3-Indolyl)piperidinomethyl]-2-propionylaminothiazole] | 0.89 µg/mL
